Biological target: hERG channel (Homo sapiens (Human), UniProt Q12809)
Test: hERG channel assay (whole cell patch clamp)
Type: cell-based
Settings: read-out: hERG IC50; CHO cell line expressing hERG

By UniProt entry, the sequences of proteins in these tests, tags left out.
UniProt Q12809, whole entry: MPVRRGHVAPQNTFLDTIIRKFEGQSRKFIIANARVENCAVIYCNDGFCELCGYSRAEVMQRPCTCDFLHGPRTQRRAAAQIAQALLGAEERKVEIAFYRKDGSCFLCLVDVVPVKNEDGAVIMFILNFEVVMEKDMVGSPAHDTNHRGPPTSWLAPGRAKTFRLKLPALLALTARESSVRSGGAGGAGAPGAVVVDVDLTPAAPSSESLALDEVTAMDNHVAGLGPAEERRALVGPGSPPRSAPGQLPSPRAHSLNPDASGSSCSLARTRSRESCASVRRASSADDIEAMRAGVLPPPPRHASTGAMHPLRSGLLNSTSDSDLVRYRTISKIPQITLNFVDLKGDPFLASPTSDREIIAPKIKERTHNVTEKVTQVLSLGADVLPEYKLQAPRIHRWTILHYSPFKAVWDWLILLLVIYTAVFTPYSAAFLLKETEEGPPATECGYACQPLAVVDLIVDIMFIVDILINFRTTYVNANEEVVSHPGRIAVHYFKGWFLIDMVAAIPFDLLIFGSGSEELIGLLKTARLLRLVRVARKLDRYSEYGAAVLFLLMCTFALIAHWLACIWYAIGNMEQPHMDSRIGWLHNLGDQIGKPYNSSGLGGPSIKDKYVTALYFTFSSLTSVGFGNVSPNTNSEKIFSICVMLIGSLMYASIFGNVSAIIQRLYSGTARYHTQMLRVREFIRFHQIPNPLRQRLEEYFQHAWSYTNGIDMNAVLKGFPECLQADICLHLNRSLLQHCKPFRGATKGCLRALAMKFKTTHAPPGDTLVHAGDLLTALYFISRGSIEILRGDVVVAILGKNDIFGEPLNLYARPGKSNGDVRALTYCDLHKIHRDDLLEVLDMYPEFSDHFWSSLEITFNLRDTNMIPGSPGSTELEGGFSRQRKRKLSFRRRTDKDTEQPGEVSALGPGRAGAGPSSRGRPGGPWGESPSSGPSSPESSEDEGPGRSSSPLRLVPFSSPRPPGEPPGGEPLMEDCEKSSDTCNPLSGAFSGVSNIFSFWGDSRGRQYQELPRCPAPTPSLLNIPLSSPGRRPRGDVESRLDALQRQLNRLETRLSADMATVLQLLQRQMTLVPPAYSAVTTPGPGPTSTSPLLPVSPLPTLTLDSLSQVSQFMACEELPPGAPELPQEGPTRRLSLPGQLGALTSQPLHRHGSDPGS

Question: How did the IC50 turn out when `F[C@@H]1CCN(Cc2nc3ccccc3n2Cc2ccc(Cl)cc2)C1` was run?
Answer: Its IC50 is 10 µM.

Source: patent US8975247B2, “Methods and compositions of treating a flaviviridae family viral infection” (priority 2009, dated 2015)
